Here are results for one molecule from patent US10034922B2, “Peptide having angiogenesis inhibitory activity and composition containing same” (GemVax & KAEL Co., Ltd., priority 2013, dated 2018).

Test [1] concerns HSP70. Description: HSP70 protein level by immunoblotting, serum-free media, 2 h treatment. It is filed as cell-based, human. The note with it: for amount of HSP70, comparison with HSP inhibitors: 17-AAG 1 μM, KNK437 1 μM; for HSP70 level: increasing concentration, serum-free. The method, then: Jurkat and MCF7 cells ([…]) were seeded and incubated for 12 hours. After treating the starvation for 2 hours by adding the OPTI-MEM media, same as the shown figure, the cells were treated by the PEP1 at the different concentrations, by the scrambled peptides, […] (1 μM) or KNK437 (1 μM). After the 2-hour incubation, the cells were collected and lysated by using cell lysis buffer (Thermo Scientific, IL, USA). By using Bradford Protein Assay (Bio-Rad, USA), the protein concentration was quantified, and the samples were treated by SDS-PAGE and immunoblotting with α-HSP70 (sc-32239 and sc-66048, Santa Cruz, Calif., USA), α-HSP90 (ab1429, abcam, USA), α-GRP78 (sc-13968), α-HIF-1a (sc-10790) or α-GAPDH (sc-25778) antibodies. The immune reactive band was visualized by the intensive chemiluminescence kit (iNtRoN Biotechnology, INC, Korea), and analyzed by ImageQuant™ LAS-4000 (GE Healthcare Life Science, NJ, US).

In test [2] the test system is HSP90. In words: HSP90 in tumor sections (immunohistochemical staining). It is filed as in vivo, mouse. The note with it: MC38 tumor sections, PEP1 50 μg/kg. The protocol:
7 week-old BALB/c athymic mice (Nu/Nu) (10 mice per group; n=20, female, Orient Bio Co. Gyunggido, Korea) were divided into two groups randomly after the subcutaneous injection of murine colon carcinoma MC38 (5×10^5 cells/ml in 200 μl PBS per site). PEP1 (50 μg/kg in 100 μl 0.9% NaCl solution) or PBS were injected into the mice once per 2 days. When the size of tumor reaches 10 mm, the PEP1 and PBS were injected to the inside of tumor. The size of tumor was measured in once per 2 days, and the volume of tumor was calculated following equation; volume (mm3)=((width2×length)/2). All experiments were approved by the Institute for Experimental Animals (College of Medicine, Seoul National University at Seoul, Korea).
Similar to the PCNA staining method, by using immunohistochemical staining, HSP70 and HSP90 proteins expression in tumor were evaluated. The antibodies to the heat shock proteins (HSP70; sc-7298, HSP90; ab1429) was used as the first antibodies. HSP70 and HSP90 proteins expression by tumors was evaluated by immunoblotting using tumor lysate. After freezing by liquid oxygen, the tumor was crashed by the mortar, and homogenized by extraction buffer (20 mM HEPES, pH7.5, 100 mM NaCl, 0.05% Triton X-100, 1 mM DTT, 0.5 mM sodium orthovanadate, 1 mM EDTA, 0.5 mM PMSF, 10 μg/ml aprotinin, 5 μg/ml leupeptin, 2 μg/ml pepstatin). […]

With `CC[C@H](C)[C@H](NC(=O)[C@H](Cc1ccccc1)NC(=O)[C@H](CCCNC(=N)N)NC(=O)[C@H](CC(C)C)NC(=O)[C@H](CCCNC(=N)N)NC(=O)[C@H](CO)NC(=O)[C@@H](NC(=O)[C@H](CC(C)C)NC(=O)[C@H](CC(C)C)NC(=O)[C@H](C)NC(=O)[C@@H]1CCCN1C(=O)[C@H](CCCNC(=N)N)NC(=O)[C@H](C)NC(=O)[C@@H](N)CCC(=O)O)[C@@H](C)O)C(=O)N1CCC[C@H]1C(=O)N[C@@H](CCCCN)C(=O)O` [PEP1, EARPALLTSRLRFIPK], the “decrease of HSP70” value in test [1] (Jurkat cells, 5 μM) is listed as “more than 50%”. Moreover, the “amount of HSP70, comparison with HSP inhibitors” value is given as “decreased” in test [1] (Jurkat cells, PEP1 5 μM) and “decrease” in test [1] (MCF7 cells, PEP1 20 μM). For the same molecule, the HSP70 level result in test [1] (Jurkat cells) and in test [1] (MCF7 cells) was “significantly decreased” in each case. In addition, the “HSP70 decreased to, as compared with the control group” value in test [1] (MCF7 cells, 20 μM) came out at 50%. Besides, the “HSP90 staining pattern vs PBS treated control” value in test [2] is listed as “weaker staining pattern”. The “HSP90 positive stained part vs control” value in test [2] (Leica Qwin quantification) was “very small”.
